Measured values as given in patent publication US20250170254A1, “Subdermal Implant for Sustained Drug Delivery” (OAK CREST INSTITUTE OF SCIENCE, priority 2022, published 2025).

How the values were obtained:
[1] = In vitro BSA release through ePTFE membranes into 1×PBS (FIG. 37B); details: depot of 33% w/v BSA in monoolein

## bovine serum albumin [BSA]
[1]; 0.17 mm, sintered ePTFE
  BSA release rate: 0.24 mg/day
[1]; unsintered, 0.24 mm ePTFE
  BSA release rate: 0.75 mg/day
100% BSA powder, no excipients, over 28 d, 37° C.
  release from ePTFE implant: did not appreciably release
BSA 30% w/w paste with monoolein 70% w/w, over 8 d
  release rate (slope of linear regression): 1.7 mg/day
BSA 30% w/w paste with monoolein 70% w/w, over 8 d, 37° C.
  release profile from ePTFE implant: released linearly
BSA 50% w/w with D-(+)-trehalose 45% w/w and L-histidine hydrochloride 5% w/w, 37° C.
  time to release BSA payload: ≤ 2 days
